Target: T1, NAD-dependent protein deacetylase sirtuin-2 (Homo sapiens) (UniProt Q8IXJ6)
T1 sequence (whole entry): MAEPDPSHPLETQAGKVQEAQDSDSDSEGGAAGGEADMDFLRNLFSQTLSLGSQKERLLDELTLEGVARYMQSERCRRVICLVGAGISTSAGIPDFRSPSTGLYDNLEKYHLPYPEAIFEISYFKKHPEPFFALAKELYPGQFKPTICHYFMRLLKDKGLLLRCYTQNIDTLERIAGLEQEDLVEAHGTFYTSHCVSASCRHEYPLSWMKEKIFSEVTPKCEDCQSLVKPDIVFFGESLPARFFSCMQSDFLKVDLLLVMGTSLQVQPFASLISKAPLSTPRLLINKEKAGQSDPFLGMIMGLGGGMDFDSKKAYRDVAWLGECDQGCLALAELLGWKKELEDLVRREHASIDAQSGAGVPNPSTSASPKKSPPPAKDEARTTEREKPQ
Assay: Inhibition of recombinant human SIRT2 expressed in baculovirus infected SF9 cells expression system using RHKK(Ac)W-NH2 as substrate at 10 uM measured after 20 mins by HPLC method
How it was run: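 SIRT2 at about 100 nM (nominal) started the reaction, without preincubation, in kit buffer pH 8.0 with 2 mM NAD+ and 250 μM RHKK(Ac)W-NH2. Final DMSO was 1%. Reactions ran 20 min at 37 °C, keeping conversion at 2–8%, and were stopped with TFA. Substrate and product were separated by C18 HPLC (10–50% B gradient) and detected at 220 nm. Peak areas gave % conversion. Results were reported as IC50 (95% CI) or % inhibition (SD), from at least duplicates.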

SMILES	inhibition
CCCc1c(CC(N)=O)[nH]c2ccc(Cl)cc12	22%
CC(C)c1c(CC(N)=O)[nH]c2ccc(Br)cc12	38%
Cc1c(CC(N)=O)[nH]c2ccc(Cl)cc12	0.34%
CCCCc1c(CC(N)=O)[nH]c2ccc(Cl)cc12	42%

Continued, values first:

inhibition	SMILES
84%	NC(=O)Cc1[nH]c2ccc(Cl)cc2c1Cc1ccccc1
74%	CC(C)(C)c1c(CC(N)=O)[nH]c2ccc(Cl)cc12
68%	CCCCCc1c(CC(N)=O)[nH]c2ccc(Cl)cc12
39%	CC(C)c1c(CC(N)=O)[nH]c2ccc(Cl)cc12

— ChEMBL document CHEMBL4706521, “Synthesis of indole inhibitors of silent information regulator 1 (SIRT1), and their evaluation as cytotoxic agents” (Eur J Med Chem, 2020)
